Source: paper PMC11279160, “Anti-Leishmania amazonensis Activity of Morolic Acid, a Pentacyclic Triterpene with Effects on Innate Immune Response during Macrophage Infection” (Microorganisms, 2024)

Assays:
[1] = tested on: L. (L.) amazonensis promastigotes; experiment: Growth inhibition of promastigotes, MTT assay, 72 h; type: cell-based, Leishmania (Leishmania) amazonensis; conditions: on the basis of SI
[2] = tested on: L. (L.) amazonensis axenic amastigotes; experiment: Growth inhibition of axenic amastigotes, MTT assay, 72 h; type: cell-based, Leishmania (Leishmania) amazonensis; conditions: on the basis of SI

CC1(C)C=C2[C@H]3CC[C@@H]4[C@@]5(C)CC[C@H](O)C(C)(C)[C@@H]5CC[C@@]4(C)[C@]3(C)CC[C@@]2(C(=O)O)CC1 [Morolic acid, morolic acid]
times more selective for promastigotes than amphotericin B [1]: 57.8 times
times more selective for promastigotes than meglumine antimoniate [1]: 79.8 times
times more selective for axenic amastigotes than amphotericin B [2]: 32.1 times
times more selective for axenic amastigotes than meglumine antimoniate [2]: 24.8 times
